Results published in ChEMBL document CHEMBL2176955, “Discovery of the macrocycle 11-(2-pyrrolidin-1-yl-ethoxy)-14,19-dioxa-5,7,26-triaza-tetracyclo[19.3.1.1(2,6).1(8,12)]heptacosa-1(25),2(26),3,5,8,10,12(27),16,21,23-decaene (SB1518), a potent Janus kinase 2/fms-like tyrosine kinase-3 (JAK2/FLT3) inhibitor for the treatment of myelofibrosis and …” (J Med Chem, 2011).

What was measured:
[1] = target: Receptor-type tyrosine-protein kinase FLT3 (Homo sapiens, UniProt P36888); experiment: Inhibition of recombinant FLT3 using Poly (Glu,Tyr) as substrate after 2 hrs by luminescence assay
[2] = target: Receptor-type tyrosine-protein kinase FLT3 (Homo sapiens, UniProt P36888, D835Y); experiment: Inhibition of FLT3 D835Y mutant expressed in human MV4-11 cells; assay type: cell-based

C1=C/COCc2cc(ccc2OCCN2CCCC2)Nc2nccc(n2)-c2cccc(c2)COC/1 (mixture of isomers) [PACRITINIB]
IC50 [1]: 22 nM | IC50 [2]: 6 nM
